Reference: US20200115357A1, “LIVER X RECEPTORS (LXR) MODULATORS” (Phenex-FXR GmbH, priority 2017, published 2020)

Amino acid sequences for entries named in this document (tags omitted). Chains listed by the source or under a name are the forms on record and can include a tag or linker. Residues count along the entry.
UniProt Q13133, 155-447 limits assumed: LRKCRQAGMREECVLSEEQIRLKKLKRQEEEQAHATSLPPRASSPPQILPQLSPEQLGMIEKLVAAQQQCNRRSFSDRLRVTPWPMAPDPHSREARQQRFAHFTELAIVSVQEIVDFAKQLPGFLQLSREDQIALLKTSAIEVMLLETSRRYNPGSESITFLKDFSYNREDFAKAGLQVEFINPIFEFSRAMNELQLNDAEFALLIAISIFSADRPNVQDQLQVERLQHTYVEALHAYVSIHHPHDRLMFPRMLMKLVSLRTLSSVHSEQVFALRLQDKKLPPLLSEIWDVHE
UniProt P55055, 156-460 with tags or gaps DUP175-175: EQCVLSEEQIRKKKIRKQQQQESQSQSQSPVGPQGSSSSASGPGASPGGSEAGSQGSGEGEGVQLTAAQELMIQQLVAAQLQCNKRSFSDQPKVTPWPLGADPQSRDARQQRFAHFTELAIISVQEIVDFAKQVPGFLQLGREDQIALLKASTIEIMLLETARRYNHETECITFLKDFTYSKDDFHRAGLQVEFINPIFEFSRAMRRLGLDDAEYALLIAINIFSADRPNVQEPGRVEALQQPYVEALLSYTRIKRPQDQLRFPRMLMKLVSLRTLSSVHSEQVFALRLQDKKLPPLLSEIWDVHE

Columns and labels:
[1] = molecular target: LXRα ligand-binding domain (LBD) (Homo sapiens, UniProt Q13133); test: LXR Gal4 reporter transient transfection assay (M2H), Gal4α LBD; details: read-out: M2H Gal4α LBD activity range (EC50); HEK293 cells
Protocol: (§1) The tested compounds were usually dissolved, tested and stored as 20 mM stock solutions in DMSO. Since sulfonyl acetic acid derivatives tend to decarboxylate under these conditions, these stock solutions were prepared, tested and stored as 20 mM DMSO stock solutions containing 100 mM trifluoroacetic acid (5 equivalents). Sulfonyl acetic acid derivatives are shelf stable as solid at rt for long time as reported by Griesbrecht et al. (Synlett 2010:374) or Faucher et al. (J. Med. Chem. 2004; 47:18).
(§2) LXR Gal4 Reporter Transient Transfection Assays
(§3) LXRα and LXRβ activity status was determined via detection of interaction with coactivator and corepressor proteins in mammalian two-hybrid experiments (M2H). […] As cofactors, domains of either the steroid receptor coactivator 1 (SRC1; amino acids 552-887; SEQ ID NO:5) or of the corepressor NCoR (amino acids 1903-2312 SEQ ID NO:6) were expressed as fusions to the DNA binding domain of the yeast transcription factor GAL4 (from pCMV-BD; Stratagene). Interaction was monitored via activation of a coexpressed Firefly Luciferase Reporter gene under control of a promoter containing repetitive GAL4 response elements (vector pFRLuc; Stratagene). […] Measurements of luminescence were done in a BMG-Iuminometer.

[2] = molecular target: LXRβ ligand-binding domain (LBD) (Homo sapiens, UniProt P55055, DUP175-175); test: LXR Gal4 reporter transient transfection assay (M2H), Gal4β LBD; details: read-out: M2H Gal4β LBD activity range (EC50); HEK293 cells
Protocol: as §1, §2, §3

[3] = molecular target: GST-LXRβ ligand-binding domain (Homo sapiens, UniProt P55055, DUP175-175); test: TR-FRETβ activity assay (LXRβ-LBD / NCoA3 coactivator peptide, prestimulated with 24(S)-25-epoxycholesterol)
Protocol: as §1
Recombinant GST-LXRβ ligand-binding domain (LBD; amino acids 156-461; NP009052; SEQ ID NO:2) was expressed in E. coli and purified via gluthatione-sepharose affinity chromatography. N-terminally biotinylated NCoA3 coactivator peptide (SEQ ID NO:1) was chemically synthesized (Eurogentec). Assays were done in 384 well format (final assay volume of 25 μL/well) in a Tris/HCl buffer (pH 6.8) containing KCl, bovine serum albumin, Triton-X-100 and 1 μM 24(S)-25-epoxycholesterol as LXR-prestimulating agonist. […] The reaction was mixed thoroughly, equilibrated for 1 h at 4° C. and vicinity of LXRβ and coactivator peptide was detected by measurement of fluorescence in a VictorX4 multiplate reader (PerkinElmer Life Science) using 340 nm as excitation and 615 and 665 nm as emission wavelengths. […]

- EC50 [1]: 100 to 1000 nM
- EC50 [2]: 100 to 1000 nM
- behavior in FRET assay ([3]; agonist or inverse agonist): ia
- EC50 ([3]; read-out: FRETβ activity range (EC50), 1 μM 24(S)-25-epoxycholesterol as prestimulating agonist): 1000 to 10000 nM
Compound: Cc1cc(C)c(S(=O)(=O)N(Cc2ccc(C(F)(F)F)o2)CC2CCC(c3cccc(C(C)(C)C(=O)O)c3)CC2)c(C)c1 (stereo not shown) [Example 19/1]
